Assay results from US20140005281A1, “Method of Predicting Increased Risk of Suffering Statin-induced Adverse Drug Reactions” (priority 2012, published 2014).

What was measured:
[1] = tested on: αC418W, δS262T, αV249F and WT mice; details: mouse, in vivo
[2] = tested on: αC418W and WT mice

CC(C)c1c(C(=O)Nc2ccccc2)c(-c2ccccc2)c(-c2ccc(F)cc2)n1CC[C@@H](O)C[C@@H](O)CC(=O)O [atorvastatin, Atorvastatin calcium]
effect on CMAP decrement [1]: no significant effect | voluntary locomotor activity ([2]; WT mice, treated over 36 days): remained unchanged | high velocity or long duration peak of voluntary locomotor activity ([2]; αC418W mice, over 36 days of treatment, particularly at 18 and 36 days): progressively decrease in frequency
